Ratio IC50 data for 1 molecule are collected here from ChEMBL document CHEMBL3621116, “Benzimidazole Derivatives as Potent JAK1-Selective Inhibitors” (J Med Chem, 2015).

For assay [1], the species on record is Homo sapiens. Put plainly: Selectivity ratio of IC50 for JAK2 (unknown origin) using 35 uM of ATP and Tyr6 peptide to IC50 for JAK1 (unknown origin) using 87 uM of ATP and Tyr6 peptide. A digest of the protocol: (§1)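 JAK1 selectivity taken as IC50 against JAK2 or JAK3 divided by IC50 against JAK1. […] IC50s are means ± SD of three independent experiments.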

Assay [2] is filed under the species Homo sapiens. Put plainly: Selectivity ratio of IC50 for JAK3 (unknown origin) using 16 uM of ATP and Tyr6 peptide to IC50 for JAK1 (unknown origin) using 87 uM of ATP and Tyr6 peptide. A digest of the protocol:
as §1

As for `NCCn1c(Cc2ccccc2)nc2cc(C(N)=O)ccc21`, the Ratio IC50 in assay [1] and in assay [2] was 0.1 each time.
